Measured values: PMC11377810, “A Gaussia luciferase reporter assay for the evaluation of coronavirus Nsp5/3CLpro activity” (Scientific Reports, 2024)

Biological target: SARS-CoV-2 Nsp5 (Severe acute respiratory syndrome coronavirus 2, UniProt P0DTD1)

Compound: COc1cccc2[nH]c(C(=O)N[C@@H](CC(C)C)C(=O)N[C@@H](C[C@@H]3CCNC3=O)C(=O)CO)cc12 [PF-00835231]
- concentrations that significantly decreased the Gaussia luciferase signal (lowest significantly active dose): 100 µM
